These are literature values, as cited in patent US7517900B2, “Pyrazole derivatives as cannabinoid receptor modulators” (Bristol-Myers Squibb Company, priority 2003, dated 2009).

For the data set the following is noted: chronic administration for two weeks.

Regarding `Cc1c(C(=O)NN2CCCCC2)nn(-c2ccc(Cl)cc2Cl)c1-c1ccc(I)cc1` [AM-251], the adipose tissue mass result is “decreased adipose tissue mass”.
